Consider two substances from patent publication US6458758B1, “Compositions and methods utilizing nitroxides in combination with biocompatible macromolecules” (Synzyme Technologies, Inc., priority 1993, dated 2002).

Assay [1] in a line: Activation of TOPS by nitroxide-labelled proteins (ESR). The class given is biochemical. As to conditions: 50 mM TOPS, sodium phosphate buffer pH 7.8, 2 min. An excerpt: FIGS. 18B, 18C, and 18D are ESR spectra showing activation of TOPS by three different nitroxide-labelled human proteins. FIGS. 18B and 18D show TOPS activation by albumin labelled with different species of nitroxide. FIG. 18C is nitroxide-labelled hemoglobin-based oxygen carrier.
As noted herein, the donor/acceptor relationship between two nitroxide containing species provides the ability for sustained nitroxide protection in vivo. The interaction of PNA and TPL as described with several of the embodiments is only one example of additional combinations provided by the invention. […] Thus, as referred to elsewhere herein, the multiple component embodiments may be formulated with different nitroxides or nitroxide-based compounds with different free-electron stabilities.

For the next assay, the system named is rats. The assay can be described thus: Transient MCA suture occlusion (2 h) and 22 h reperfusion in rats. Format: in vivo, rat. The protocol:
As a model of prophylactic therapy in the surgical/perioperative stroke setting, PNA was administered to mice both before MCA occlusion and after reperfusion. Because albumin alone may provide modest protection against cerebral ischemia, PNA was tested with both HSA and saline as controls.
Rats were subjected to 2 hours of suture occlusion of the MCA, followed by 22 hours of reperfusion. Drug or saline was administered IV in a total dose of 1% of body weight (v/w), divided as follows: ½ the total dose was given 5 minutes before MCA occlusion; ¼ of the total dose was given five minutes before the suture was removed to allow reperfusion of the MCA; and the final ¼ of the total dose was given 2 hours after reperfusion. Brain sections were stained with TTC.

Assay [2] relates to leukocyte rolling and adhesion to endothelial cells. The assay can be described thus: Cigarette smoke induced leukocyte rolling, adhesion and aggregate formation, dorsal skinfold chamber. The class given is in vivo, Syrian Golden hamsters. An excerpt:
The interactions of leukocytes with endothelial cells and platelets are an indicator of the microcirculatory response to several adverse physiological conditions, ranging from localized and systemic ischemia/reperfusion injury, rejection of organ grafts, and the response to the organism to various oxidizing novae. See also Lehr et al., PNAS, […]. The mediator role of reactive oxygen species has been documented in many in vitro and in vivo models and, as a consequence, antioxidants and radical scavengers have been applied to counteract leukocyte activation, aggregation, and adhesion to endothelium and the subsequent microcirculatory dysfunction.

The mark [3] stands for this setting: total dose 1% of body weight iv, divided.

In the case of B3T labelled albumin, the “activation of TOPS (ESR peak intensity)” value in assay [1] was “shown to activate TOPS”.

Consider “Human serum albumin: human serum albumin, control protein solution”, for which, in the assay with rats (rat, in vivo), the “protective effect as compared to that of PNA” value was “approximately 50%”. Also, in the assay on rats (setting [3]), the “% infarction” value was “approximately 11±4%” and the mean infarct volume amounted to 81±26 mm^3. In assay [2] (15 MINUTES), the aggregate formation is 0.7 ± 0.7 /30 sec, the arteriolar rolling is given as 0.1 ± 0.2 /mm, the arteriolar sticking is recorded as 0.0 ± 0.0 /mm^2 and the venular rolling is given as 5.5 ± 0.9%. Also, in assay [2] (15 MINUTES), the venular sticking is 0.0 ± 0.0 /mm^2. For the same substance, in assay [2] (60 MINUTES), the aggregate formation is listed as 1.3 ± 1.1 /30 sec, the arteriolar rolling was 0.1 ± 0.2 /mm, the arteriolar sticking was 0.0 ± 0.0 /mm^2 and the venular rolling came out at 6.9 ± 2.1%. Besides, in assay [2] (60 MINUTES), the venular sticking is 0.0 ± 0.0 /mm^2. Also, in assay [2] (BASELINE), the aggregate formation is 0.6 ± 0.7 /30 sec, the arteriolar rolling is 0.0 /mm, the arteriolar sticking is listed as 0.0 /mm^2 and the venular rolling came to 4.9 ± 0.2%. In addition, the venular sticking in assay [2] (BASELINE) was 0.0 ± 0.0 /mm^2. The leukocyte activation result in assay [2] (cigarette smoke, compared with saline-treated controls) is “inhibited activation”.
